Measurements: PMC10354055, “An optimized Nurr1 agonist provides disease-modifying effects in Parkinson’s disease models” (Nature Communications, 2023)

System: MPTP-induced male mice
Experiment: Rotarod, sub-chronic MPTP-induced PD model mice
Assay type: in vivo, mouse
Settings: Figure 4b, individual animal values
Protocol: MPTP (Sigma-Aldrich) was intraperitoneally (i.p.) injected (30 mg/kg) for 5 days (Day 1-5). […] To test dyskinetic involuntary behavior, an L-DOPA injected group was included, which received 50 mg/kg of L-DOPA and 15 mg/kg of benserazide (Sigma-Aldrich) (i.p.) for 16 days (Day 1–16). All compounds were administered 6 h post-MPTP injection to avoid any effect of compounds on the MPTP metabolism in the brain. Motor and non-motor related behavior tests were performed on the following days as described in Fig. 4a in an assessor- and observer-blinded fashion. Pre-training and baseline setup for motor-related behaviors were performed 3 days prior to the injections. Mice were sacrificed and subjected to immunohistochemistry. Mice were housed at the Animal Care Facilities of McLean Hospital under a 12-h light/12-h dark cycle, ambient temperature and humidity. Animals were handled in accordance with McLean Hospital’s Institutional Animal Care and Use Committee (Protocol #: 2015N000002) and followed National Institutes of Health guidelines.
Mice were pre-trained on an automated 5-lane rotarod unit (10 rpm, 3 min) for 2 days and the baseline was measured (10 rpm, 90 sec) before the rotarod test (3 days before the MPTP injection or the first rotarod test at week 2). […] Time on the rotating rod was measured automatically by placing a trip switch under the floor beneath the rotating drum.

CCN(CC)CCCC(C)Nc1ccnc2cc(Cl)ccc12 (stereo not shown) [CQ, chloroquine]
Latency to fall: 114.8 s
